According to PubChem BioAssay AID620 (Sanford-Burnham Center for Chemical Genomics, 2007):
The entries are a selection whose mix differs from that of the whole data set. Calls of active or inactive are those of the source. Rule as the data show it: active = cytotoxicity above about 50%; inactive = the rest.

experiment: HT1080 cell viability loss – fluorescence readout (AID 620); settings: at 10 µM, active compounds read high;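 also: cells exposed to compound overnight then 4 h with Alamar Blue; 0% = vehicle DMSO and 100% = killing control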

Row | SMILES | cytotoxicity
1 | N/C(=N\O)c1c(N)no[n+]1[O-] | inactive: 0%
2 | c1ccc(CN2CCC(Nc3ccccc3)CC2)cc1 | inactive: 12.3%
3 | Fc1ccccc1NC1CCN(Cc2ccccc2)CC1 | inactive: -1.3%
4 | CCOc1ncccc1C(=O)NCC1(N2CCOCC2)CCCCC1 | inactive: 4.1%
5 | CCC(CO)(C(=O)OC1CN2CCC1CC2)c1ccccc1 (stereo not given) | inactive: -7.5%
6 | O=C(OC1CN2CCC1CC2)C1c2ccccc2Oc2ccccc21 (stereo not given) | inactive: -9.7%
7 | O=C(NCC1(N2CCOCC2)CCCCC1)c1cc2ccccc2o1 | inactive: 1.6%
8 | COc1ccc(NC2CCN(CCc3ccccc3)CC2)c(OC)c1 | inactive: 5%
9 | N#CC1(Nc2ccccc2)CCN(CCc2ccccc2)CC1 | inactive: 5.9%
10 | O=C(NCC1(N2CCOCC2)CCCCC1)c1cc(=O)[nH]c2ccccc12 | inactive: 14.1%
